This is an account of results in US20210077478A1, “METHOD OF COUNTERING RESPIRATORY DEPRESSION VIA ACTIVATION OF NEURONAL HETEROMERIC NICOTINIC ACETYLCHOLINE RECEPTORS” (THE GOVERNORS OF THE UNIVERSITY OF ALBERTA, priority 2017, published 2021).

Series [1] concerns adult rats. Nature of the series: Fentanyl-induced respiratory depression, whole-body plethysmography in adult rats. The settings on record: for median onset of effect (reversal of fR decrease): A85380 0.03 mg/kg, naloxone 0.3 mg/kg; for fentanyl-induced muscle rigidity / reversal of fentanyl-induced decrease in tidal volume (VT): adult rats, fentanyl iv infusion; for persistence of the reversal of fR decrease: fentanyl 60 μg/kg over 20 min, VMY-2-95 1 mg/kg iv, A85380 highest dose (0.03 mg/kg iv); for fentanyl-induced decrease in oxygen saturation / fentanyl-induced fR decrease / respiratory depression / fentanyl-induced fR decrease: fentanyl 60 μg/kg over 20 min iv; for reversal of fentanyl-induced decrease of respiratory frequency: fentanyl 60 μg/kg over 20 min iv infusion, iv bolus after fentanyl: A85380 0.03, Rivanicline 3, NS9283 10, PNU282987 15 mg/kg; for fentanyl-induced fR decrease / respiratory depression: nicotine 0.1-0.3, A85380 0.01-0.03, PNU282987 1-10 mg/kg iv (Example 12); for unwanted behavioral changes (hyperalgesia, hyperventilation, abnormal body movements) / abnormal behavior: with fentanyl, preliminary studies; for fentanyl-induced fR decrease: sazetidine-A 0.5-2 mg/kg or VMY-2-95 1 mg/kg iv.

The next series concerns newborn rats. Nature of the series: Fentanyl-induced respiratory depression in rat pups (postnatal day 3-4), plethysmography. It is filed as in vivo. The following applies: for reversal of fentanyl-induced VT depression in pups: nicotine or A85380.
Series [2] concerns adult rats. As to the kind of experiment: Remifentanil-induced apnea in adult rats. The settings on record: remifentanil 5 μg/kg co-administered with A85380 0.03-0.06 mg/kg iv.
The subject of series [3] is adult rats. As to the kind of experiment: Fentanyl-induced sedation (loss of righting reflex) in adult rats. Format: in vivo, rat. The following applies: fentanyl 20 μg/kg over 400s; A85380 0.06 mg/kg sc.
Series [4] deals with adult rats. As to the kind of experiment: Heart rate (pulse oximeter) in adult rats. The following applies: fentanyl 30 μg/kg over 10 min iv, subsequent lobeline.
Series [5] concerns adult rats. Nature of the series: Formalin test (licking and lifting) in adult rats. It is filed as in vivo, rat. The settings on record: fentanyl 30 μg/kg over 10 min iv; lobeline 3 mg/kg 7 min post fentanyl.
[6] abbreviates: fentanyl 35 μg/kg, nicotine 0.3-0.6, A85380 0.03-0.06 (dose-dependent), PNU282987 1-20 mg/kg sc.
Where [7] appears, read: fentanyl 35 μg/kg sc, ~7 min later sazetidine-A 0.2-0.5 or VMY-2-95 1 mg/kg sc.
Setting [8] is: fentanyl 12 μg/kg over 1 min iv co-administered with lobeline 3 mg/kg over 1 min iv.
Setting [9] is: DHβE 6 mg/kg with fentanyl, lobeline 10 mg/kg.
Setting [10] is: fentanyl 35 μg/kg, lobeline 10 mg/kg sc.

As for `C=CCN1CC[C@]23c4c5ccc(O)c4O[C@H]2C(=O)CC[C@@]3(O)[C@H]1C5`, the “median onset of effect (reversal of fR decrease)” value in the series on adult rats [1] stood at 10.1 s.
Consider `CNC1(C)C2CCC(C2)C1(C)C` (stereo not shown), for which, in the series with newborn rats (mecamylamine 6 mg/kg co-administered with fentanyl 35 μg/kg), the “effect of mecamylamine on fentanyl-induced respiratory depression” value is “did not affect the fentanyl-induced respiratory depression”.
Regarding `c1cncc(OC[C@@H]2CCN2)c1` [A85380, 3-(2(s)-azetidinylmethoxy) pyridine], in the series on adult rats [1], the “median onset of effect (reversal of fR decrease)” value was determined as 11.1 s, the fentanyl-induced muscle rigidity entry is on record as “did not appear to reduce the muscle rigidity”, the “reversal of fentanyl-induced decrease in tidal volume (VT)” value is recorded as “no reversal of VT” and the “persistence of the reversal of fR decrease” value is recorded as “persisted beyond the duration of the fentanyl infusion”. In addition, in the series on adult rats [1], the “fentanyl-induced decrease in oxygen saturation” value is “alleviated”; the “reversal of fentanyl-induced decrease of respiratory frequency” value is “quickly and completely reversed”; the “fentanyl-induced fR decrease / respiratory depression” value is given as “dose-dependently reversed”; the “unwanted behavioral changes (hyperalgesia, hyperventilation, abnormal body movements) / abnormal behavior” value is reported as “not observed”. The “prevention of fentanyl-induced respiratory depression” value with adult rats [1] (A85380 0.06 mg/kg neck sc 2 min prior to fentanyl 20 μg/kg, 400s infusion) is recorded as “reduced the severity of fentanyl-induced respiratory depression”. Also, in the series with adult rats [1] (A85380 0.06 mg/kg sc), the behavioral side effects result was “no behavioral side effects were observed”. The “fentanyl-induced decrease of body temperature (median)” value with adult rats [1] (end of 20-min infusion of 60 μg/kg fentanyl, A85380 treatment) was −1.2 °C. In the series on adult rats [2], the “incidence of remifentanil-induced apnea” value is “markedly reduced the incidence of apnea” and the “remifentanil-induced depression of VE” value was “reduced the depression of VE”. In the series with newborn rats (setting [6]), the “fentanyl-induced respiratory depression (decrease in fR, VT, VE)” value was “alleviated”. In addition, the “reversal of fentanyl-induced VT depression in pups” value with newborn rats is “reversal of the VT depression”. Also, the “loss of righting reflex” value with adult rats [3] was found to be 16.2±1.3 min post fentanyl.
With `N#Cc1cccc(-c2nc(-c3cccnc3)no2)c1` [NS9283, 3-[3-(3-Pyridinyl)-1,2,4-oxadiazol-5yl]benzonitrile], in the series with adult rats [1], the “reversal of fentanyl-induced decrease of respiratory frequency” value is “partially and transiently reversed”; the “unwanted behavioral changes (hyperalgesia, hyperventilation, abnormal body movements) / abnormal behavior” value is reported as “not observed”.
On to `O=C(N[C@H]1CN2CCC1CC2)c1ccc(Cl)cc1` [PNU282987], for which, in the series on adult rats [1], the “fentanyl-induced decrease in oxygen saturation” value is “but not by PNU282987”, the “reversal of fentanyl-induced decrease of respiratory frequency” value is reported as “had no effect” and the “fentanyl-induced fR decrease / respiratory depression” value is given as “had no effect”. Also, the “fentanyl-induced respiratory depression (decrease in fR, VT, VE)” value in the series on newborn rats (setting [6]) is on record as “no reversal”.
For `CNCC/C=C/c1cccnc1` [Rivanicline, (E)-N-Methyl-4-(3-pyridinyl)-3-butene-1-amine], in the series with adult rats [1], the “reversal of fentanyl-induced decrease of respiratory frequency” value was “quickly and partially reversed”; the “unwanted behavioral changes (hyperalgesia, hyperventilation, abnormal body movements) / abnormal behavior” value was “not observed”.
In the case of `C(#Cc1cncc(OC[C@@H]2CCN2)c1)c1ccccc1` [VMY-2-95, 3-[(2S)-2-Azetidinylmethoxy]-5-(2-phenylethynyl)-pyridine], in the series on adult rats [1], the fentanyl-induced muscle rigidity entry was “did not reduce the muscle rigidity”, the “reversal of fentanyl-induced decrease in tidal volume (VT)” value is reported as “not a reversal of VT”, the “persistence of the reversal of fR decrease” value was “persisted beyond the duration of the fentanyl infusion” and the “fentanyl-induced fR decrease” value was “reversed the fentanyl-induced fR decrease”. Moreover, the “fentanyl-induced VT decrease in pups” value in the series on newborn rats (VMY-2-95) is recorded as “alleviated”. The “fentanyl-induced respiratory depression (decrease in fR, VT, VE)” value in the series on newborn rats (setting [7]) is “alleviated”.
`CN1[C@@H](CC(=O)c2ccccc2)CCC[C@H]1C[C@H](O)c1ccccc1` [lobeline, 2-((2R,6S)-6-((S)-2-Hydroxy-2-phenylethyl)-1-methylpiperidin-2-yl)-1-phenylethanone]: the fentanyl-induced muscle rigidity result in the series on adult rats [1] is “may have been mildly alleviated, but still persisted”. In addition, in the series on adult rats [1] (setting [8]), the fentanyl-induced apneas result is reported as “blocked apneas” and the “prevention of fentanyl-induced respiratory depression” value is given as “completely prevented”. Also, the “fentanyl-induced respiratory depression in fR, VT, VE, and Sao2” value in the series on adult rats [1] (fentanyl 30 μg/kg over 10 min iv, lobeline 3 mg/kg iv bolus ~7 min after fentanyl) is “completely reversed”. Besides, the fentanyl-induced bradycardia result in the series on adult rats [4] is reported as “markedly alleviated fentanyl-induced bradycardia”. Besides, in the series with newborn rats (setting [9]), the “lobeline effects on fentanyl-induced depression of VT with DHβE” value is “but not VT” and the “lobeline effects on fentanyl-induced depression of fR with DHβE” value was “partially suppressed”. In the series on newborn rats (setting [10]), the “fentanyl-induced decrease in respiratory rate (fR)” value was “partially reversed” and the “fentanyl-induced decrease in tidal volume (VT)” value is on record as “completely reversed”. In addition, the “lobeline effects on fentanyl-induced respiratory depression with mecamylamine” value in the series on newborn rats (mecamylamine 6 mg/kg with fentanyl, lobeline 10 mg/kg) was “markedly suppressed, but not completely abolished”. In addition, in the series on adult rats [5], the “fentanyl-induced analgesia, phase I” value was “further increased fentanyl-induced analgesia” and the “fentanyl-induced analgesia, phase II” value is reported as “tended to increase the fentanyl-induced analgesia in the phase II, but the difference is not significant”.
With `CN1CCCC1c1cccnc1` (stereo not shown) [nicotine], in the series with adult rats [1], the “fentanyl-induced decrease in oxygen saturation” value was “alleviated” and the “fentanyl-induced fR decrease / respiratory depression” value is “reversed the fentanyl-induced fR decrease”. The “duration of reversal of fR decrease” value in the series with adult rats [1] (nicotine 0.1-0.3 mg/kg iv) lay within 5 to 10 min. The “fentanyl-induced respiratory depression (decrease in fR, VT, VE)” value with newborn rats (setting [6]) was “alleviated”. In addition, the “reversal of fentanyl-induced VT depression in pups” value in the series on newborn rats is “reversal of the VT depression”.
On to `OCCCCC#Cc1cncc(OC[C@@H]2CCN2)c1` [sazetidine-A, 6-[5-[(2S)-2-Azetidinylmethoxy]-3-pyridinyl]-5-hexyn-1-ol], for which the “fentanyl-induced fR decrease” value in the series on adult rats [1] is listed as “did not change the course of fentanyl action”. Also, in the series on newborn rats (setting [7]), the “fentanyl-induced respiratory depression (decrease in fR, VT, VE)” value is on record as “alleviated”.
As for dihydro-beta-erythroidine, in the series with newborn rats (DHβE 6 mg/kg with fentanyl, then sazetidine-A or VMY-2-95, nicotine or A85380), the “effect of DHβE co-application on alleviation of fentanyl-induced respiratory depression by agonists” value is reported as “prevented the alleviation”.
